Statin myotox sup: suppression of simvastatin myotoxicity; C2C12 myotubes + simvastatin, ATP luminescence, 48 h; scaled: DMSO 0, geranylgeraniol control 100; rescue of ATP level, % at 7.49 µM; 330,000 tested, 0.78% active; AID 602340;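 active = mean ATP rescue above about 67%, or every replicate alone reaching that limit, limit read from the data, passing the limit was not always enough; inconclusive = no clear call, values can overlap the other calls; inactive = mean under the limit and some replicate under it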;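 note: myotubes were challenged with 10 µM simvastatin during compound exposure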
E-selectin induc: induces E-selectin expression in human endothelial cells | P16581 | HUVEC E-selectin immunofluorescence imaging; normalized: neutral wells 0, TNF-alpha wells 100 | activation, % at 7.58 µM | 260,000 tested, 0.37% active;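 active = mean E-selectin-positive cell signal at least 10% of the positive control, reached in at least 60% of replicates, without over 20% cell loss; inconclusive = no rule given, readout overlaps actives, possibly toxicity-flagged; inactive = the rest, including those meeting only one limit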
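System: HUVEC, human umbilical vein endothelial cells; quantity: 3,000 cells/well; buffer or medium: EGM-2 medium, gelatin-coated wells; dosing: single-point compound dose; detection: immunofluorescence imaging; evaluation: % PE-positive cells; benchmarks: TNF-alpha, DMSO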
PGC1a acetyl inh: modulators of PGC1a acetylation; U2OS PGC1a acetylation, AlphaScreen anti-acetyl-lysine; with virally co-expressed GCN5 acetyltransferase; inhibition, % at 15.6 µM; 350,000 tested, 0.17% active; AID 651687;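 active = every replicate shows inhibition of at least 40%; inconclusive = mean inhibition at least 40% but some replicate below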;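 note: 0% = neutral control wells and 100% = positive control wells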
esBAF inh: inhibitors of esBAF chromatin remodeling in mouse ES cells | reporter increase, % at 12.5 µM | Bmi1-luciferase knock-in reporter, 24 h; 100% = twice the neutral-well signal | 350,000 tested, 2% active | AID 602393; in the data active = activation above about 40%; inconclusive = no clear call, values can overlap the other calls;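 note: 0% = median of the plate's neutral control wells and 100% = double that signal; a rise in the Bmi1 reporter signal indicates esBAF inhibition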
PglD inh: PglD (C. jejuni) enzyme inhibition | purified PglD enzyme, DTNB colorimetric CoA detection | inhibition, % at 12.5 µM | 360,000 tested, 0.098% active; in the data active = inhibition above about 16%, passing the limit was not always enough; inconclusive = no clear call, values can overlap the other calls
Yeast UUG start: modulators of yeast start codon fidelity, primary screen, whole organism, S. cerevisiae, single point, plate reader; S. cerevisiae UUG-firefly luciferase reporter, luminescence/redox ratio; activity score, % at 18.7 µM; 0.13% of 350,000 active; AID 602363, 2012;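 active = replicate mean at a twofold rise or more, about +100% in these data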;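 also: firefly luciferase made from a UUG start codon reports start codon fidelity; reporter light over untreated wells divided by growth signal over untreated wells; some hits fall short of that in this replicate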
An asterisk follows results filed as active; ? = inconclusive; . = not tested or not shown. A selection: hits, their analogues and other compounds. The true share with any hit is near 2.8%.

1: C[C@H]1CN([C@@H](C)CO)C(=O)c2cccc(NC(=O)c3ccncc3)c2O[C@H]1CN(C)C(=O)Nc1ccc(C(F)(F)F)cc1
2: C[C@@H]1CCCCO[C@@H](CN(C)C(=O)Nc2cccc3ccccc23)[C@H](C)CN([C@H](C)CO)C(=O)c2cc(N(C)C)ccc2O1
3: O=C(CC1CC1)N1CC2(C1)[C@@H](c1ccccc1)[C@H](CO)N2C(=O)c1cccnc1
4: CC(=O)Oc1ccc([C@@H]2COc3c(ccc4c3C=CC(C)(C)O4)C2)c(OC(C)=O)c1
5: C[C@H](CO)N1C[C@H](C)[C@@H](CN(C)C(=O)CC2CC2)Oc2cc(C#CC(C)(C)O)ccc2S1(=O)=O
screen / no. | 1 | 2 | 3 | 4 | 5
Statin myotox sup | -9.1 | 53.0 | . | 15.7 | 5.9
E-selectin induc | 15.9 | 0.1 | 0.5 | . | -0.3
PGC1a acetyl inh | 4.1 | -23.6 | . | 2.2 | -22.4
esBAF inh | -4.8 | 3.9 | . | 49.9* | 3.9
PglD inh | -1.7 | 0.3 | . | -1.8 | -0.6
Yeast UUG start | -24.2 | 1.2 | . | -16.7 | -0.1

6: CN(/N=C/c1ccc2c(c1)OCO2)c1ccccc1
7: CN(C(=O)/C=C/c1ccc2c(c1)OCO2)c1ccccc1
8: CCC(=O)Nc1ccc2c(c1)C(=O)N(C)[C@H]1CC[C@@H](CC(=O)NC3CCCC3)O[C@@H]1CO2
9: CC(C)C[C@@H](CNCC(=O)[C@H](Cc1c[nH]c2ccccc12)NC(=O)c1[nH]cnc1C(=O)N[C@@H](C)CN)NC(=O)c1nc[nH]c1C(=O)N[C@@H](Cc1ccccc1)C(=O)O
10: CC(C)C[C@H](NC(=O)c1[nH]cnc1C(=O)N[C@@H](Cc1ccccc1)C(=O)OCc1ccccc1)C(=O)OCc1ccccc1
screen / no. | 6 | 7 | 8 | 9 | 10
Statin myotox sup | 5.0 | -8.8 | -41.3 | -6.1 | 136.8*
E-selectin induc | 0.0 | -0.1 | -0.1 | 0.7 | 0.1
PGC1a acetyl inh | 2.6 | -4.5 | 5.1 | 8.8 | 16.6
esBAF inh | 50.6* | 53.0* | -4.2 | -1.3 | -2.0
PglD inh | 0.4 | -3.6 | 0.6 | -1.1 | -4.6
Yeast UUG start | -2.4 | -16.4 | -1.8 | 130.6* | -5.4

11: CC(C)C[C@H](NC(=O)c1nc[nH]c1C(=O)N[C@@H](CC(C)C)C(=O)OCc1ccccc1)C(=O)OCc1ccccc1
12: O=S(=O)(Cc1ccccc1)NCC[C@@H]1CC[C@H](NS(=O)(=O)c2ccc(F)cc2)[C@@H](CO)O1
13: Cc1ccc(CN(C(=O)c2cc3ccccc3oc2=O)C2CCS(=O)(=O)C2)cc1 (stereo not drawn)
14: CC(C)N(Cc1ccc(F)cc1)C(=O)c1cc2ccccc2oc1=O
15: O=C(c1cc2ccccc2oc1=O)N(Cc1ccc(F)cc1)C1CCS(=O)(=O)C1 (stereo not drawn)
screen / no. | 11 | 12 | 13 | 14 | 15
Statin myotox sup | 7.8 | 2.8 | -17.0 | -4.1 | 11.8
E-selectin induc | . | -0.1 | . | . | 0.0
PGC1a acetyl inh | -11.8 | 0.9 | -0.6 | -19.5 | -1.5
esBAF inh | -3.5 | 9.2 | 35.7 | 47.5* | ?
PglD inh | 1.1 | 0.2 | -3.6 | -6.1 | 0.3
Yeast UUG start | -10.1 | . | -6.6 | -21.1 | -8.3

16: CN(C)C(CNC(=O)c1cc2ccccc2oc1=O)c1ccccc1 (stereo not drawn)
17: CCc1ccc(CN(C(=O)c2cc3ccccc3oc2=O)C2CCS(=O)(=O)C2)cc1 (stereo not drawn)
18: CC=Cc1ccc2n(c1=O)C[C@@H]1[C@@H](CO)[C@H](C(=O)Nc3ccc(-c4ccccc4)cc3)[C@H]2N1CC (mixture of isomers)
19: C[C@@H]1CN([C@@H](C)CO)C(=O)c2cc(C#CC3(O)CCCC3)cnc2O[C@@H]1CN(C)C(=O)Cc1ccncc1
20: O=C1C=CCCN1C(=O)/C=C/c1cccc(Br)c1
screen / no. | 16 | 17 | 18 | 19 | 20
Statin myotox sup | 2.3 | 0.9 | . | 28.5 | .
E-selectin induc | . | . | 0.2 | -0.1 | .
PGC1a acetyl inh | -1.0 | -0.8 | 3.6 | 2.4 | 46.4*
esBAF inh | 51.4* | 86.1* | . | 1.1 | .
PglD inh | -9.5 | -2.0 | . | -2.3 | .
Yeast UUG start | -6.9 | -14.8 | . | -0.3 | .

Structural class, those above with fluorine
1: C[C@H]1CN([C@@H](C)CO)C(=O)c2cccc(NC(=O)c3ccncc3)c2O[C@H]1CN(C)C(=O)Nc1ccc(C(F)(F)F)cc1
12: O=S(=O)(Cc1ccccc1)NCC[C@@H]1CC[C@H](NS(=O)(=O)c2ccc(F)cc2)[C@@H](CO)O1
14: CC(C)N(Cc1ccc(F)cc1)C(=O)c1cc2ccccc2oc1=O
15: O=C(c1cc2ccccc2oc1=O)N(Cc1ccc(F)cc1)C1CCS(=O)(=O)C1 (stereo not drawn)
screen / no. | 1 | 12 | 14 | 15
Statin myotox sup | -9.1 | 2.8 | -4.1 | 11.8
E-selectin induc | 15.9 | -0.1 | . | 0.0
PGC1a acetyl inh | 4.1 | 0.9 | -19.5 | -1.5
esBAF inh | -4.8 | 9.2 | 47.5* | ?
PglD inh | -1.7 | 0.2 | -6.1 | 0.3
Yeast UUG start | -24.2 | . | -21.1 | -8.3

Later entries:
21: CCCc1n[nH]c2c1/C(=N/O)CC(c1ccccc1)C2 (stereo not drawn)
22: CCc1n[nH]c2c1/C(=N/O)CCC2
23: COc1ccc(C(=O)Cn2c(=N)n(C)c3ccccc32)cc1
24: Cn1c(=N)n(CC(=O)C(C)(C)C)c2ccccc21
25: Cc1noc(C)c1S(=O)(=O)Nc1ccc2c(c1)C(=O)N([C@H](C)CO)C[C@H](C)[C@@H](CN(C)Cc1ccncc1)OCCCC[C@@H](C)O2
screen / no. | 21 | 22 | 23 | 24 | 25
Statin myotox sup | . | 87.3* | 4.6 | -1.4 | .
E-selectin induc | . | . | 1.2 | . | 0.0
PGC1a acetyl inh | 4.8 | -2.0 | -2.1 | 7.6 | -9.8
esBAF inh | . | -9.2 | 87.4* | 50.6* | -4.1
PglD inh | -2.1 | 4.1 | -16.5 | -0.9 | -0.9
Yeast UUG start | -7.8 | 3.6 | -7.7 | 2.0 | -11.1

26: CN1C(=O)c2cc(NC(=O)C3CC3)ccc2OC[C@@H]2O[C@@H](CC(=O)NCCc3ccncc3)CC[C@H]21
27: NC(N)=NC(=O)c1nc(Cl)c(N)nc1N
28: NC(N)=NC(=O)c1nc(Cl)c(N2CCCCCC2)nc1N
29: Cc1nc2sc(C(c3ccccc3)N3CC(C)OC(C)C3)c(O)n2n1 (stereo not drawn)
30: Cc1nc2sc(C(c3ccc(Br)cc3)N3CC(C)OC(C)C3)c(O)n2n1 (stereo not drawn)
screen / no. | 26 | 27 | 28 | 29 | 30
Statin myotox sup | -7.3 | -11.1 | -36.2 | 2.2 | 91.4*
E-selectin induc | -0.1 | 2.0 | -0.1 | . | .
PGC1a acetyl inh | -4.3 | -4.9 | 2.5 | 0.0 | -0.4
esBAF inh | -3.6 | -28.3 | 58.6* | 1.1 | 5.6
PglD inh | 4.3 | -6.9 | -1.0 | -5.9 | -6.3
Yeast UUG start | -12.0 | -22.7 | -22.4 | -6.7 | -15.5

31: CCCCN(c1ccccc1)c1ncnc(N)c1[N+](=O)[O-]
32: O=C(C[C@@H]1CC[C@H]2[C@@H](COC[C@H](O)CN2C(=O)Nc2ccccc2)O1)NCCCN1CCOCC1
33: O=C(N/N=C/c1ccc(-c2ccccc2Cl)o1)c1ccccc1
34: O=S(=O)(N/N=C\c1ccc(-c2ccccc2Cl)o1)c1ccccc1
35: C[C@H](CO)N1C[C@H](C)[C@@H](CN(C)CC2CC2)Oc2c(NC(=O)CCCCCC(=O)Nc3ccccc3N)cccc2C1=O
screen / no. | 31 | 32 | 33 | 34 | 35
Statin myotox sup | 13.9 | 1.5 | . | 118.1* | .
E-selectin induc | . | -0.1 | . | . | -0.2
PGC1a acetyl inh | 52.0* | 35.5 | -1.8 | -16.9 | .
esBAF inh | -18.2 | -0.4 | . | -8.9 | .
PglD inh | 2.5 | -2.5 | . | -6.0 | .
Yeast UUG start | -4.0 | -8.6 | . | -18.6 | .

36: CCOc1ccc(C(=O)Oc2cc(C)[nH]c(=O)c2[N+](=O)[O-])cc1
37: COc1cccc(OC)c1-c1nn2c(-c3ccco3)nnc2s1
38: C[C@@H]1CN([C@@H](C)CO)C(=O)c2cc(-c3ccc(C#N)cc3)cnc2O[C@@H]1CN(C)C(=O)c1ccccc1
39: Cc1cc(OCc2cc(C(=O)N(C)C3CCOCC3)no2)cc(C)c1Cl
40: Cc1ccc(OCc2cc(C(=O)N(C)CC3CCOCC3)no2)cc1C
41: COc1ccc(OCc2cc(C(=O)N(C)C3CCOCC3)no2)c2ccccc12
42: CCN1CCCC1CNC(=O)c1cc(COc2ccc(C)c(C)c2)on1 (stereo not drawn)
43: O=C(NCC[C@H]1CC[C@@H](NS(=O)(=O)c2ccccc2)[C@@H](CO)O1)c1ccccc1F
screen / no. | 36 | 37 | 38 | 39 | 40 | 41 | 42 | 43
Statin myotox sup | 126.8* | -2.7 | 4.1 | -8.8 | 2.0 | -37.7 | 2.9 | -4.7
E-selectin induc | -0.4 | . | -0.2 | 0.8 | -0.1 | . | -0.2 | -0.4
PGC1a acetyl inh | -1.3 | 15.8 | 3.5 | -1.5 | 0.7 | . | 7.5 | 19.0
esBAF inh | 4.1 | 54.3* | 3.2 | 61.4* | 68.6* | 38.5 | 45.0* | 6.0
PglD inh | 2.8 | -1.5 | -0.8 | 0.2 | 0.2 | -2.4 | 3.2 | 2.4
Yeast UUG start | -9.9 | -33.3 | -1.0 | -3.5 | -2.4 | 16.0 | -16.9 | 9.4

Compound activity from PubChem.
